{"source": "patent US20150125904A1", "about": "“PROBE INCORPORATION MEDIATED BY ENZYMES” (Massachusetts Institute of Technology, priority 2012, published 2015)", "key": {"[1]": {"molecular_target": "Trp37→Gly LplA (Escherichia coli, UniProt P32099, W38G)", "details": "30 min reaction, 500 μM probe; normalized to TCO2/Trp37→Val", "procedure": "(§1) LplA protein was purified as previously described2 and stored at −80° C. in 20 mM Tris-HCl, pH 7.5 supplementated with 10% v/v glycerol. Reactions were quenched with 30 mM EDTA (final concentration) and resolved by HPLC (Varian ProStar) on a C-18 column using a linear gradient of 25-60% acetonitrile in H2O (with 0.1% v/v trifluoroacetic acid) over 14 minutes. Species were detected at 210 nm absorbance. Peaks corresponding to LAP and its trans-cyclooctene adducts were confirmed by ESI mass spectrometry. The extent of conversion was calculated from ratios of peak areas, neglecting minor extinction coefficient changes to LAP due to trans-cyclooctene ligation.\n(§2) The relative abilities of wild-type and mutant ligases to ligate TCO1-3 onto LplA acceptor peptide (LAP) were measured by an HPLC assay after 30 min. reaction time. […] Errors, ±1 s. d."}, "[2]": {"molecular_target": "Trp37→Ile LplA (Escherichia coli, UniProt P32099, W38I)", "details": "30 min reaction, 500 μM probe; normalized to TCO2/Trp37→Val", "procedure": "as §1, §2"}, "[3]": {"molecular_target": "Trp37→Val LplA (W37VLplA) (Escherichia coli, UniProt P32099, W38V)", "details": "30 min reaction, 500 μM probe; normalized to TCO2/Trp37→Val", "procedure": "as §1, §2"}, "[4]": {"molecular_target": "W37VLplA (Escherichia coli, UniProt P32099, W38V)", "procedure": "After 5, 10, 15 and 20 minutes, an aliquot was drawn from the reaction vial, quenched with 30 mM EDTA (final concentration) and the product quantified by HPLC as in Table 3. The plot of product concentration against time was fitted to a linear line whose slope corresponds to the initial velocity. The value of kcat was calculated from the Michaelis-Menten equation Vmax=(kcat)([Enzyme]) at substrate-saturating conditions. Measurements were performed in triplicate."}}}
{"smiles": "O=C(O)CCCCNC(=O)O[C@H]1CC/C=C/CCC1", "note": "(stereo in doubt) [TCO2, rel-(1R-4E-pR)-cyclooct-4-ene-1-yl-N-pentanoic acid carbamate]", "values": [{"measurement": "Ligation efficiency (average, normalized product percentage), Trp37→Gly", "setting": "[1]", "result": "52.6 ± 1.1", "unit": "%"}, {"measurement": "Ligation efficiency (average, normalized product percentage), Trp37→Ile", "setting": "[2]", "result": "77.8 ± 1.6", "unit": "%"}, {"measurement": "Ligation efficiency (average, normalized product percentage), Trp37→Val", "setting": "[3]", "result": "100.0 ± 8.3", "unit": "%"}, {"measurement": "kcat slower than ligation of lipoic acid by the same enzyme", "setting": "[4]", "result": 2, "unit": "fold"}]}
